ChEMBL document CHEMBL5107999, “Synthesis and biological evaluation of 4-hydroxy-methylpiperidinyl-N-benzyl-acylarylhydrazone hybrids designed as novel multifunctional drug candidates for Alzheimer's disease” (Bioorg Med Chem, 2022)

Assay: Selectivity ratio, ratio of IC50 for equine serum BuChE to IC50 for Electrophorus electricus AchE

COc1cc2c(cc1OC)C(=O)C(CC1CCN(Cc3ccccc3)CC1)C2 (stereo unspecified)
Ratio IC50: 180
